The record followed here is patent publication US20070059687A1, “Process for evaluating phagocytotic function and use thereof” (priority 2001, published 2007).

The chains behind the UniProt entries cited, without tags or fusion partners. Residues count along the entry.
UniProt P06873, 106-384: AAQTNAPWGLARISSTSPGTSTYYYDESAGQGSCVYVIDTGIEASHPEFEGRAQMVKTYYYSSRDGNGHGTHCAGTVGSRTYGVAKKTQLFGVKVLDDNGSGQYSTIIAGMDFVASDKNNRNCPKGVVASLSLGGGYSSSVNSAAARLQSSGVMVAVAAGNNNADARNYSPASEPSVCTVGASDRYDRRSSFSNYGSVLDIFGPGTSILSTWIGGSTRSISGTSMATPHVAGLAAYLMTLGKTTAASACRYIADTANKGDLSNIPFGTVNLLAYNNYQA

In the assay the target is proteinase K (Parengyodontium album, UniProt P06873). To be noted: protease 0.2 unit/ml.

Regarding `O=S(=O)(F)Cc1ccccc1` [PMSF, phenylmethylsulfonylfluoride], the “PMSF concentration at which deterioration of morphology of the leukocytes was completely suppressed” value is ≥ 0.1 mmol/l. Besides, the “PMSF concentration at which effects were found” value (leukocyte morphology) is ≥ 10 µmol/L.
